# This is a selection; strong and weak results do not stand in their true shares. Results filed as inconclusive are left out. Some salts and complexes are drawn in separate pieces, as the source files them; their charges need not balance. The source made the active and inactive calls. Calls come from the whole dose curve; as a rule, active = well fitted activation curve with a large enough effect; inconclusive = small, poorly fitted or top-dose-only effect, or another doubt; inactive = no such curve, though single readings can be large or run the other way; cell line not stated here.
# Assay: qHTS for Agonist of gsp, the Etiologic Mutation Responsible for Fibrous Dysplasia/McCune-Albright Syndrome: qHTS;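 note: phosphodiesterase inhibitor Ro 20-1724 added with compounds to block cAMP breakdown; nearly all actives have a fitted effect of over 60% in size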
# Conditions: gsp mutant cells, cAMP HTRF, 30 min; at 76.9 µM (top of the series) unless noted
row,Compound,activation (cAMP increase)
1,c1ccc(CN2CCC(Nc3ccccc3)CC2)cc1,inactive: 1.34%
2,Cc1cc(N(CCCl)CCCl)ccc1C=O,inactive: 2.08%
3,CCCN1CCC(Nc2cc(OC)cc(OC)c2)CC1,inactive: -1.1% [at 15.4 µM]
4,CN(C)C1(CNC(=O)c2cccc(C#N)c2)CCCCC1,inactive: -20.1% [at 15.4 µM]
5,CCOC(=O)C(CC)C1=NC(C)(C)Cc2ccccc21.O=[N+]([O-])c1cc([N+](=O)[O-])c(O)c([N+](=O)[O-])c1 (configuration not stated),inactive: 20.5%
6,CC(C)(C)OC(=O)N1CCC(N(C(=O)c2ccccc2)c2ccc(Cl)cc2)CC1,inactive: -18.1%
7,N#Cc1ccc(C(=O)NCC2(N3CCCCC3)CCCCC2)cc1,inactive: -11% [at 15.4 µM]
8,CCc1cc(C(=O)NCC2(N3CCCCC3)CCCCC2)sc1C,inactive: 7.21% [at 15.4 µM]
9,O=C(OC1CN2CCC1CC2)C1c2ccccc2C=Cc2ccccc21 (configuration not stated),inactive: -10.7%
10,O=C(O)c1cccc(Nc2c([N+](=O)[O-])cc([N+](=O)[O-])cc2[N+](=O)[O-])c1,inactive: 1.85%
11,N/C(=N\O)c1c(N)no[n+]1[O-],inactive: -5.51%
12,CCOC(=O)N1CCC(Nc2ccc(C)cc2)CC1,inactive: 4.51% [at 15.4 µM]
13,COc1ccc(C(=O)NCC2(N3CCOCC3)CCCCC2)cc1OC,inactive: 2.58%
14,O=C(NCC1(N2CCOCC2)CCCCC1)c1cc(Br)ccc1Cl,inactive: 27.7%
15,COc1cc(C(=O)NCC2(N3CCOCC3)CCCCC2)cc(OC)c1C,inactive: -19.2%
16,CN1CCC(Nc2ccc(Cl)cc2)CC1,inactive: -46.7%
17,CCC(CO)(C(=O)OC1CN2CCC1CC2)c1ccccc1 (configuration not stated),inactive: -34.4%
18,COc1cc(OC)cc(C(=O)NCC2(N3CCOCC3)CCCCC2)c1,inactive: -5.87% [at 15.4 µM]
19,COc1cccc(C(=O)N(c2cc(C)cc(C)c2)C2CCN(C(=O)OC(C)(C)C)CC2)c1,inactive: -0.636%
20,CCCOc1ccc(C(=O)NCC2(N(C)C)CCCCC2)cc1,inactive: -7.39%
21,CC(C)(C)OC(=O)N1CCC(Nc2ccccc2)CC1,inactive: -3.62%

row,Compound,activation (cAMP increase)
1,O=C(O)C1(Nc2ccccc2)CCN(Cc2ccccc2)CC1,inactive: -3.01%
2,CCOc1ncccc1C(=O)NCC1(N2CCOCC2)CCCCC1,inactive: 1.34%
3,CN1CCC(Nc2ccc(F)c(Cl)c2)CC1,inactive: 5.12% [at 15.4 µM]
4,O=C(NCC1(N2CCCCC2)CCCCC1)c1ccco1,inactive: 5%
5,CN(C)c1ccc(C(=O)NCC2(N3CCCCC3)CCCCC2)cc1,inactive: 1.95% [at 15.4 µM]
6,Cn1c(=O)[nH]cc(N(CCCl)CCCl)c1=O,inactive: -63.8%
7,Cc1ccccc1NC1(C#N)CCN(Cc2ccccc2)CC1,inactive: -1.6%
8,CCN1CCC(Nc2cccc(F)c2)CC1,inactive: -21.4%
9,Cc1ccc(NC2(C#N)CCN(Cc3ccccc3)CC2)cc1,inactive: 17.3% [at 15.4 µM]
10,Cc1ccc(C(=O)NCC2(N3CCCCC3)CCCCC2)o1,inactive: -34.8%
11,Fc1ccccc1NC1CCN(Cc2ccccc2)CC1,inactive: -10.4%
12,Cc1ccc(Nc2c([N+](=O)[O-])cc([N+](=O)[O-])cc2[N+](=O)[O-])cc1,inactive: -35%
13,COc1cc(OC)cc(C(=O)NCC2(N3CCCCC3)CCCCC2)c1,inactive: -2.4% [at 15.4 µM]
14,CCOC(=O)N1CCC(Nc2cccc(C)c2)CC1,inactive: -15.6%
15,COc1cc(C(=O)NCC2(N(C)C)CCCCC2)ccc1OC(F)F,inactive: -13% [at 15.4 µM]
16,O=P1(N(CCCl)CCCl)SCCCS1,inactive: 15.4%
17,CCCCOc1ccc(C(=O)NCC2(N3CCOCC3)CCCCC2)cc1,inactive: -0.764% [at 15.4 µM]
18,O=C(NCC1(N2CCCCC2)CCCCC1)c1ccc(F)cc1,inactive: -1.29%
19,COc1ccc(NC2CCN(CCc3ccccc3)CC2)c(OC)c1,inactive: -48.2%
20,CCOC(=O)N1CCC(Nc2ccc(F)cc2)CC1,inactive: -8.12%
21,CCOc1ccc(C)cc1CN(CCCl)CCCl,inactive: 14.1% [at 15.4 µM]

row,Compound,activation (cAMP increase)
1,CCOC(=O)N1CCC(Nc2ccc(OC)cc2)CC1,inactive: 23.4%
2,O=C(NCC1(N2CCCCC2)CCCCC1)c1ccc(Cl)s1,inactive: 12%
3,N#CC1(Nc2ccccc2)CCN(Cc2ccccc2)CC1,inactive: 10.5%
4,O=C(OC1CN2CCC1CC2)C1c2ccccc2Oc2ccccc21 (configuration not stated),inactive: -39.5%
5,COc1ccc(Cl)cc1C(=O)NCC1(N2CCOCC2)CCCCC1,inactive: -26.5%
6,O=C1C(O)=C([N+](=O)[O-])C(=O)C(O)=C1[N+](=O)[O-],inactive: 25.3%
7,O=C(NCC1(N2CCOCC2)CCCCC1)c1cc2ccccc2o1,inactive: -9.2%
8,O=C(NCC1(N2CCCCC2)CCCCC1)c1ccc(Cl)nc1,inactive: 10.1% [at 15.4 µM]
9,Cc1cc(C)cc(N(C(=O)c2ccccc2)C2CCN(C(=O)OC(C)(C)C)CC2)c1,inactive: 14.1%
10,CSc1ccccc1C(=O)NCC1(N2CCCCC2)CCCCC1,inactive: -43.6%
11,Cc1cccc(NC2(C#N)CCN(Cc3ccccc3)CC2)c1,inactive: 0.355% [at 15.4 µM]
12,O=C(NCC1(N2CCCCC2)CCCCC1)c1cccs1,inactive: -5.5% [at 15.4 µM]
13,COc1ccc(C(=O)NCC2(N3CCCCC3)CCCCC2)cc1,inactive: -25.3% [at 15.4 µM]
14,CC(C)(C)OC(=O)N1CCC(N(C(=O)c2ccccc2)c2ccc(F)cc2)CC1,inactive: 3.67%
15,COc1ccc(C(=O)NCC2(N3CCCCC3)CCCCC2)c(OC)c1OC,inactive: 6.06%
16,Cc1ccc(C(=O)NCC2(N(C)C)CCCCC2)o1,inactive: -64.8%
17,CCCOc1ccc(C(=O)NCC2(N(C)C)CCCCC2)cc1OC,inactive: -5.14% [at 15.4 µM]
18,O=[N+]([O-])c1cc([N+](=O)[O-])c(Nc2ccc(Cl)cc2)c([N+](=O)[O-])c1,inactive: -0.77%
19,CN1CCC(Nc2cccc(F)c2)CC1,inactive: -81.1%
20,COc1ccc2c(c1O)-c1c(O)c(OC)cc3c1[C@H](C2)[N+](C)(C)CC3.O=[N+]([O-])c1cc([N+](=O)[O-])c([O-])c([N+](=O)[O-])c1[O-],inactive: 24.2%
21,O=C(NCC1(N2CCCCC2)CCCCC1)c1cncc(Br)c1,inactive: -29.9%

row,Compound,activation (cAMP increase)
1,O=C(OC1CN2CCC1CC2)c1ccc([N+](=O)[O-])cc1 (configuration not stated),inactive: -45.7%
2,COc1cc(OC)c(C(=O)NCC2(N(C)C)CCCCC2)cc1OC,inactive: -27.5%
3,O=C(NCC1(N2CCOCC2)CCCCC1)c1cc(F)c(F)cc1Cl,inactive: 6.44%
4,COc1ccc(CN(CCCl)CCCl)cc1Cl,inactive: -23.1%
5,O=[N+]([O-])c1cc([N+](=O)[O-])c(OC2CCCCC2O)c([N+](=O)[O-])c1 (configuration not stated),inactive: 11.2% [at 15.4 µM]
6,CN(C)c1cccc(C(=O)NCC2(N3CCCCC3)CCCCC2)c1,inactive: 0.821%
7,CC(C)c1ccc(NC2CCN(C(=O)OC(C)(C)C)CC2)cc1,inactive: -5.43% [at 15.4 µM]
8,CN1CCN(CCOC(=O)C(O)(c2ccccc2)c2ccccc2)CC1,inactive: -55.4%
9,CC(C)c1ccc(C(=O)NCC2(N3CCOCC3)CCCCC2)cc1,inactive: -78.8%
10,COc1ccc(NC2CCN(C(=O)OC(C)(C)C)CC2)cc1,inactive: 5.61%
11,COc1cc(C(=O)NCC2(N3CCCCC3)CCCCC2)ccc1OC(F)F,inactive: -12.1% [at 15.4 µM]
12,O=C(NCC1(N2CCOCC2)CCCCC1)c1cc(=O)[nH]c2ccccc12,inactive: -12.7%
13,O=C(NCC1(N2CCCCC2)CCCCC1)c1cccc(C(F)(F)F)c1,inactive: 2.54%
14,O=[N+]([O-])c1cc([N+](=O)[O-])c(NCC2CCS(=O)(=O)C2)c([N+](=O)[O-])c1 (configuration not stated),inactive: 1.43% [at 15.4 µM]
15,O=C(NCC1(N2CCCCC2)CCCCC1)c1cccc([N+](=O)[O-])c1,inactive: -44.7%
16,CSc1ccc(C(=O)NCC2(N3CCOCC3)CCCCC2)cc1,inactive: -1.34%
17,CCN1CCC(Nc2ccc(Cl)cc2)CC1,inactive: -24.6%
18,N#CC1(Nc2ccccc2)CCN(CCc2ccccc2)CC1,inactive: -15%
19,O=C(NCC1(N2CCCCC2)CCCCC1)c1ccc(OC(F)F)cc1,inactive: 16.2% [at 15.4 µM]

# Source: PubChem BioAssay AID624287 (National Center for Advancing Translational Sciences (NCATS), 2012)
